Source: article PMC8308740 (Pharmaceuticals, 2021)
Read-outs that look alike come from different tables or passages of the source.

Amino acid sequences for entries named in this document (tags omitted). A change or cut given only in a name is not applied to a line headed by its entry.
UniProt Q27783: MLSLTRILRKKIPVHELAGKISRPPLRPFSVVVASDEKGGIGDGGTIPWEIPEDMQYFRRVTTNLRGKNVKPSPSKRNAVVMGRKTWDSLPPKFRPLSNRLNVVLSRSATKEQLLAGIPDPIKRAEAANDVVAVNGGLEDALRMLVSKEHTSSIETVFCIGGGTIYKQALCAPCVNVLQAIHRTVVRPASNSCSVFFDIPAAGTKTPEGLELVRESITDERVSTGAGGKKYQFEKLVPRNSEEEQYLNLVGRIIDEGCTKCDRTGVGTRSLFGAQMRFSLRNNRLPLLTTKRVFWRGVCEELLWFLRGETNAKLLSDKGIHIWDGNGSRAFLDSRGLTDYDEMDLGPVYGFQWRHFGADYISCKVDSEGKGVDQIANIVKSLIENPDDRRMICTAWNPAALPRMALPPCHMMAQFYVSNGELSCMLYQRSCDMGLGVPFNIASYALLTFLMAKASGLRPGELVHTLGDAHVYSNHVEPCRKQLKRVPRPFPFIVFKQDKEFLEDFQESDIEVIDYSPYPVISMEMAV

Assays:
TbPTR1 = biological target: T1, TbPTR1 (Trypanosoma brucei brucei, UniProt O76290); conditions: read-out: IC50 TbPTR1; recombinant enzyme
T1 sequence (O76290 1-268): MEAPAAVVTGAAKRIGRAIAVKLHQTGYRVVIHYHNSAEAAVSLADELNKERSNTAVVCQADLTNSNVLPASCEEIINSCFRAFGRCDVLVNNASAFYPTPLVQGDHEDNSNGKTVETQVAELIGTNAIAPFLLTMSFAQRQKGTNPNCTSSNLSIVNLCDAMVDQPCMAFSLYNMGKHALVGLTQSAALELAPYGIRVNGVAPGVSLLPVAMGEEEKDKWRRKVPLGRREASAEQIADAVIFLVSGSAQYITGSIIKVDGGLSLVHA

TbDHFR-TS = TbDHFR-TS (Trypanosoma brucei brucei, UniProt Q27783); design: His tag; made in house; host or cells: E. coli; conditions: cited from earlier work
[1] = Ki printed in the IC50 column, read-out: TbDHFR-TS Ki

| Compound | IC50 (TbPTR1) | Ki (TbDHFR-TS; [1]) | Ki (TbDHFR-TS; read-out: TbDHFR inhibition constant (Ki)) |
| --- | --- | --- | --- |
| CCc1nc(N)nc(N)c1-c1ccc(Cl)cc1 [PYR, pyrimethamine] | 90 nM | 24 nM | 24.2 nM |
| CC1(C)N=C(N)N=C(N)N1c1ccc(Cl)cc1 [CYC, cycloguanil, reference compound] |  | 256 nM |  |
